Sequences of proteins named here, by UniProt entry; tags and fusion partners are left off. A change or cut given only in a name is not applied to a line headed by its entry.
UniProt P34975: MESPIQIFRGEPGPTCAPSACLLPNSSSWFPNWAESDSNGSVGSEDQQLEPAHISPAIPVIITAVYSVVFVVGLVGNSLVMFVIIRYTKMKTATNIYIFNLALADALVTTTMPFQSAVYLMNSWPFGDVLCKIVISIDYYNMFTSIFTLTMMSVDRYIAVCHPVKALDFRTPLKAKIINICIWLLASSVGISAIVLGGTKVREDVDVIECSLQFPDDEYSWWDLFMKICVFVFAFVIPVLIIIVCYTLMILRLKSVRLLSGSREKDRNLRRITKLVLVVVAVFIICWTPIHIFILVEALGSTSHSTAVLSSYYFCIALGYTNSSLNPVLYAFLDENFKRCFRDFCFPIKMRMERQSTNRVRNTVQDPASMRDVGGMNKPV
UniProt Q60492, whole entry: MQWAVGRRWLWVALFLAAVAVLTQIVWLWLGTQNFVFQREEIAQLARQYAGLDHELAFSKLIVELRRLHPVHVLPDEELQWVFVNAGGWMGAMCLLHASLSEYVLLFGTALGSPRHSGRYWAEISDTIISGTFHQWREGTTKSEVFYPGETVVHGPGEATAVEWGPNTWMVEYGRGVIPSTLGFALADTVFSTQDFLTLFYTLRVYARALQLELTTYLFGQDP

According to patent US20030171347A1, “Sigma receptor antagonists having anti-cocaine properties and uses thereof” (priority 1998, published 2003):

Legend:
[1] = molecular target: opiate receptors (Rattus norvegicus, UniProt P34975); conditions: read-out: Opiate
[2] = molecular target: T1, σ1 receptors (Cavia porcellus, UniProt Q60492); experiment: σ1 receptor competition binding; conditions: Table 1; [3H](+)-pentazocine, guinea pig brain; mean±SEM, minimum of two independent assays
T1 construct: Crude P2 membranes were prepared from guinea pig brain, rat brain, or rat liver; from tissue; host or cells: guinea pig brain (crude P2 membranes)

SMILES | IC50 [1] [µM] | Ki [2] [µM]
CN(C)CCN(C)CCc1ccc(Cl)c(Cl)c1 [BD1047] | > 10 | –
CCCN(CCc1ccc(Cl)c(Cl)c1)CCN1CCCCC1 [BD1069] | > 10 | –
COc1ccccc1CC(=O)N(C)CCN1CCCC1 [YZ-008] | – | 5.46 ± 0.686
